According to patent US8372950B2, “IgG binding peptide” (Kagoshima University, priority 2006, dated 2013):

Assays:
human MRA (IgG) = target: T1, human MRA (IgG) (Homo sapiens, UniProt P01857); assay: dot blotting detection of human MRA (IgG) on nitrocellulose membranes; assay type: binding; conditions: untreated MRA, Fc-III(N)
T1 construct: purchased Chugai Pharmaceutical
Method: Acid-treated human MRA (IgG) was detected on the membrane using IMGpep-4K6R (the peptide of the present invention) and the IMGpep-1CS peptide. Specifically, acid-treated human MRA (IgG) and untreated human MRA (IgG) were spotted on nitrocellulose membranes in an amount of 1.5 ng, 3 ng, 6 ng, 12.5 ng, 25 ng, 50 ng, and 100 ng per spot. The membranes were dried for 5 minutes and then 0.5% BSA was added for blocking for 2 hours at room temperature. Here, acid-treated human MRA was prepared by adding 10 μl of 1 M glycine-HCl (pH 2.8) to 100 μl of humanized anti-human IL-6 receptor IgG antibody (MRA) (2000 μg/ml, PBS solution), carrying out incubation at 40° C. for 10 minutes, and then neutralizing it by the addition of 30 μl of 1 M Tris-HCl (pH 8.7).
A biotinylated IMGpep-4K6R peptide or a biotinylated Fc-III peptide, or IMGpep-1CS, were mixed with HRP-conjugated SA (streptavidin) (120 nM) in advance at a molar ratio of 4:1. The mixture was added to the membranes blocked as described above, followed by 1 hour of reaction. After 3 times of washing with PBS containing 0.1% Tween20, a chemiluminescence reagent (Chemi-Lumi One, Nakalai Tesque) was added. Images were analyzed for detection using a LAS-1000 Image Analyzer (Fuji Film).

[1] = SPR determination of generation rate of acid-denatured IgG under acid treatment conditions; assay type: physicochemical; conditions: 10 minutes
Method: For this SPR analysis, human IgG samples were prepared via acid treatment under various conditions as described below and then tested. […] Subsequently, 30 μl (or 20 μl for a sample to which glycine-HCl with pH 2.7 had been added) of 1 M Tris-HCl (pH 8.7) was added to each solution for neutralization.

Substance | detection limit (human MRA (IgG)) [ng/spot] | generation rate of acid-denatured IgG ([1]; acid treatment pH 1.5, 20° C.) [%] | generation rate of acid-denatured IgG ([1]; acid treatment pH 2.1, 20° C.) [%] | generation rate of acid-denatured IgG ([1]; acid treatment pH 2.7, 20° C.) | generation rate of acid-denatured IgG ([1]; acid treatment pH 2.7, 30° C.) [%]
DCAWHLGELVWCT [Fc-III, reference compound] | 6 |  |  |  | 
anti-HER2 human antibody: anti-HER2 human antibody (Herceptin) |  | 12.8 | 7.8 | approximately 5% | 9.7
